Assays:
[1] = biological target: T1, D(2) dopamine receptor (Homo sapiens, UniProt P14416); test: Agonist activity at human dopamine D2L receptor expressed in HEK293 cells assessed as inhibition of forskolin-induced cAMP accumulation after 30 mins by LANCE assay; format: functional, cell-based
[2] = biological target: D(1B) dopamine receptor (Homo sapiens, UniProt P21918); test: Displacement of [3H]SCH23390 from human dopamine D5 receptor transfected in HEK293 cells after 2 hrs by scintillation counting analysis; format: cell-based
[3] = biological target: T1, D(2) dopamine receptor; test: Displacement of [3H]spiperone from low-affinity state of human dopamine D2S receptor transfected in HEK293 cells after 2 hrs by scintillation counting analysis; format: cell-based
[4] = biological target: T1, D(2) dopamine receptor; test: Displacement of [3H]spiperone from low-affinity state of human dopamine D2L receptor transfected in HEK293 cells after 2 hrs by scintillation counting analysis; format: cell-based
[5] = biological target: T1, D(2) dopamine receptor; test: Displacement of [3H]spiperone from high-affinity state of human dopamine D2L receptor transfected in HEK293 cells after 2 hrs by scintillation counting analysis; format: cell-based
[6] = species on record: Homo sapiens; test: Selectivity ratio of Ki for human dopamine D1-like receptor to Ki for human dopamine D2-like receptor

Chains of the proteins cited; added tags and fusions are not shown.
UniProt P14416, whole entry: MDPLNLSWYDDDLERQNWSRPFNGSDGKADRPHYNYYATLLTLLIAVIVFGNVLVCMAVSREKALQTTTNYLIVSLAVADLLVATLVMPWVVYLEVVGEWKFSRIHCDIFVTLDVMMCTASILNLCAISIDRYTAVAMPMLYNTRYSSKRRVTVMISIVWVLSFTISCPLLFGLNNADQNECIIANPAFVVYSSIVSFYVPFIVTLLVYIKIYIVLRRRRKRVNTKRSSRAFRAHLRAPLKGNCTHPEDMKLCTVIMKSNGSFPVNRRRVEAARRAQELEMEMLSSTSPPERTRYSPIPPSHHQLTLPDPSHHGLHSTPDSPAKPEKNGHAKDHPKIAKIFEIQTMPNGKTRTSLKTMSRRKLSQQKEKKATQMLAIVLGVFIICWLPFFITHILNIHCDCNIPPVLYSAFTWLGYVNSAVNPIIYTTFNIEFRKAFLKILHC
UniProt P21918, whole entry: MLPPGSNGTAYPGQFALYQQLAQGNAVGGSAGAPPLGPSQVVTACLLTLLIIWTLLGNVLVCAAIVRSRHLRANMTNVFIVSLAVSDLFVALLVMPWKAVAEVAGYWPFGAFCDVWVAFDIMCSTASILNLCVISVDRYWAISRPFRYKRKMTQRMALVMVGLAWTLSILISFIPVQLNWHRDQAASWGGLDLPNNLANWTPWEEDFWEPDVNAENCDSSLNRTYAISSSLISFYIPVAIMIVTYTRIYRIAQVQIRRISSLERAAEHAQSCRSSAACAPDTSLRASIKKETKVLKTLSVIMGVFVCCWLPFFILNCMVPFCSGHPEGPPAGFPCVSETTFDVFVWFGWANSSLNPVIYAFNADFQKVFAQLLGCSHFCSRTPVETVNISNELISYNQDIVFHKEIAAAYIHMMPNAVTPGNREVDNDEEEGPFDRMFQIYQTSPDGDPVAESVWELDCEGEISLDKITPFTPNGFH

SMILES: Oc1ccc2c(c1)O[C@@H](CNCc1ccc(I)cc1)CC2
- EC50 [1]: 0.631 nM
- Ki [2]: 3790 nM
- Ki [3]: 140 nM
- Ki ([4]; read-out: Ki): 51.8 nM
- Ki ([4]; read-out: pKi (converted)): 35.5 nM
- Ki [5]: 3.79 nM
- Ratio Ki [6]: > 100

Reference: ChEMBL document CHEMBL3112461, “Synthesis and characterization of a novel series of agonist compounds as potential radiopharmaceuticals for imaging dopamine D₂/₃ receptors in their high-affinity state” (J Med Chem, 2014)
